The experiment concerns lymphocytes of a healthy individual. As to conditions: presence or absence of riluzole (FIG. 4B).

From patent US20100093655A1 (priority 2007, published 2010) come the findings set out here.

Each structure is given as a SMILES string.

For `Nc1nc2ccc(OC(F)(F)F)cc2s1` [riluzole, 6-(trifluoromethoxy)-2-aminobenzothiazole], the effect on mortality entry is recorded as “do not show a specific effect on mortality”.
